Measured values: ChEMBL document CHEMBL1124123, “Graphics computer-aided receptor mapping as a predictive tool for drug design: development of potent, selective, and stereospecific ligands for the 5-HT1A receptor” (J Med Chem, 1988)

Sequences of proteins named here, by UniProt entry; tags and fusion partners are left off.
UniProt P28564, whole entry: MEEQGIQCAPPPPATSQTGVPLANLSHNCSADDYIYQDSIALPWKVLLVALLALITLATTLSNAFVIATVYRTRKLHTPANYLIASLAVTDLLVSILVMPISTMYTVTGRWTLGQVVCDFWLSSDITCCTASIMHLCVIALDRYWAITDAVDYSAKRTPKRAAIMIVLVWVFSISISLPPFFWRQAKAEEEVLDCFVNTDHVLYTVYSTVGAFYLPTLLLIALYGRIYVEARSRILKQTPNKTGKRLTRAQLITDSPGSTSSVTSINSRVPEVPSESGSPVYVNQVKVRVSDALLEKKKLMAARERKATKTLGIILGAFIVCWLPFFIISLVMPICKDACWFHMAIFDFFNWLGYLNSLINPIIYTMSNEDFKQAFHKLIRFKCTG

Biological target: 5-hydroxytryptamine receptor 1B (Rattus norvegicus, UniProt P28564)
Assay: Binding affinity against 5-HT1B receptor in rat frontal cortex using [3H]-5-HT in presence of 0.1 uM […]
Format: tissue-based

CCCN(CCC)C1CCc2cccc(O)c2C1 (stereo unspecified) [8-OH-DPAT]
IC50: 3.8 µM
